Each compound was assayed against G-protein coupled receptor 68 (Homo sapiens, UniProt Q15743) (assay: Binding affinity to GPR68 expressed in human HEK293T cells assessed as cAMP production in presence of H+ proton by Split-luciferase based luminescence counter analysis). Conditions: filed as positive allosteric modulator.
Type: cell-based
Method in brief: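 Proton concentration-response of GPR68 (wild type or E160A/K/Q, R189L/M, H269F mutants) in transiently transfected HEK293-T cells. Read-out: GloSensor cAMP, with luciferin loading 90 min at 37°C at pH 8.4. Run with and without increasing modulator concentrations; 20 min at room temperature before luminescence. Proton KA fixed to the proton EC50 without modulator. KB, τA, α, β fitted globally with an operational allosteric model. n=4.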

Protein sequences, listed by entry. Tags and fused reporters are not part of them. Lines headed by an entry give the natural chain unless they say otherwise; changes in a name come on top.
UniProt Q15743: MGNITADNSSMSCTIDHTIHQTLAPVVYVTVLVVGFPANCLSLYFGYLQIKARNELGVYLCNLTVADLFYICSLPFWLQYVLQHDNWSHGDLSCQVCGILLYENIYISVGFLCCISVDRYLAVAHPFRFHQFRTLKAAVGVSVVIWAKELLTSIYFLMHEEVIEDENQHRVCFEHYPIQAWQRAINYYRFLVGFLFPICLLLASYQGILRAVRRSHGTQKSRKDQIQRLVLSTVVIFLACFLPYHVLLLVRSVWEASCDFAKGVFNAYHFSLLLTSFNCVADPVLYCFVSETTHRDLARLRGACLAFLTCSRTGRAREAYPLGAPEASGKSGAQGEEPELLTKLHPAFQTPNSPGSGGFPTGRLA

SMILES | pKb
Nc1nc(NCc2ccccc2)nc(-c2ccccc2CO)n1 [Ogerin] | 5.89
Nc1nc(NCc2ccccc2)nc(-c2cccc(CO)c2)n1 [ZINC32547799] | 4.69
Nc1nc(NCc2ccccc2)nc(-c2cc(F)cc(F)c2)n1 | 5.08
